Measurements taken from patent US20110243958A1, “ANTIMICROBIAL AGENTS THAT TARGET BACTERIAL VKOR” (priority 2008, published 2011).

Tested on: M. smegmatis
Assay: microbe, parasite or virus in culture
Type: cell-based, Mycobacterium smegmatis
Details: Mycolicibacterium smegmatis, M. smegmatis grown in NZ-glucose (rich medium); alamar blue assay; read-out: minimal inhibitory concentration

SMILES: CC(=O)CC(c1ccccc1)c1c(O)c2ccccc2oc1=O (stereo not shown) [warfarin]
- MIC: 2250 µM (≈ 694 µg/mL)

Values after ≈ are worked out from the molar mass of the structure shown.
